Among the data in ChEMBL document CHEMBL3808281, “Investigation of the Structure-Activity Relationships of Aza-A-Ring Indenoisoquinoline Topoisomerase I Poisons” (J Med Chem, 2016) are growth values, retold here.

This assay can be described thus: Cytotoxicity against human NCI60 cells assessed as cell growth at 10 uM after 48 hrs. The class given is functional. Conditions: NCI60, 48 h, read-out: Activity.

In the case of `CN(C)CCCn1c2c(c3ccncc3c1=O)C(=O)c1ccccc1-2`, the growth at 10 µM was -9.25%.
